Measurements: patent US8735584B2 (Merck Patent GmbH, priority 2008, dated 2014)

Amino acid sequences for entries named in this document (tags omitted).
UniProt O14965, whole entry: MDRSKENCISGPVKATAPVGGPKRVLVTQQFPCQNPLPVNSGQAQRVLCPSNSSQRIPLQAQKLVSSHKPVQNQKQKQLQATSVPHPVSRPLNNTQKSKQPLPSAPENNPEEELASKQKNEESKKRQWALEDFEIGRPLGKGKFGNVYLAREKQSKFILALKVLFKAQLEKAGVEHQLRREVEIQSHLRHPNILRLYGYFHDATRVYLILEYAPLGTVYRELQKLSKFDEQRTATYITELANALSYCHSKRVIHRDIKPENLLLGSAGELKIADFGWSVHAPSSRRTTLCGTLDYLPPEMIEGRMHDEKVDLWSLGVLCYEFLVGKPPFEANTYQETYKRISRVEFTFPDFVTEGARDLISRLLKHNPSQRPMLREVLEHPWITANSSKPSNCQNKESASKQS

Molecular target: GST-Aurora A (Homo sapiens, UniProt O14965)
Experiment: Aurora A IC50, Caliper LC3000 mobility shift assay
Details: read-out: Aurora Kinase A Activity (IC50); LC3000 method; 15 uM ATP (the KM value)

IC50: > 100 nM
Compound: CN(C)CCNC(=O)c1ccc2c(=O)[nH]c3nccc(Nc4ccn(CC(=O)Nc5cccc(F)c5)n4)c3c2c1
